Laboratory results published in the DeepSol protein solubility set.

Test: soluble on expression in E. coli; label from the status in PepcDB or PDB records

Sequence	soluble on expression in E. coli
MGHHHHHHSHMANSAGSMANSAGSMDELFPLIFPAEPAQASGPYVEIIEQPKQRGMRFRYKCEGRSAGSIPGERSTDTTKTHPTIKINGYTGPGTVRISLVTKDPPHRPHPHELVGKDCRDGFYEAELCPDRCIHSFQNLGIQCVKKRDLEQAISQRIQTNNNPFQVPIEEQRGDYDLNAVRLCFQVTVRDPSGRPLRLPPVLPHPIFDNRAPNTAELKICRVNRNSGSCLGGDEIFLLCDKVQKEDIEVYFTGPGWEARGSFSQADVHRQVAIVFRTPPYADPSLQAPVRVSMQLRRPSDRELSEPMEFQYLPDTDDRHRIEEKRKRTYETFKSIMKKSPFSGPTDPRPPPRRIAVPSRSSASVPKPAPQPYPFTSSLSTINYDEFPTMVFPSGQISQASALAPAPPQVLPQAPAPAPAPAMVSALAQAPAPVPVLAPGPPQAVAPPAPKPTQAGEGTLSEALLQLQFDDEDLGALLGNSTDPAVFTDLASVDNSEFQQLLNQGIPVAPHTTEPMLMEYPEAITRLVTGAQRPPDPAPAPLGAPGLPNGLLSGDEDFSSIADMDFSALLSQISS	not soluble
VVNGIPTRTNIGWMVSLRYRNKHICGGSLIKESWVLTARQCFPSRDLKDYEAWLGIHDVHGRGDEKCKQVLNVSQLVYGPEGSDLVLMKLARPAVLDDFVSTIDLPNYGSTIPEKTSCSVYGWGYTGLINYDGLLRVAHLYIMGNEKCSQHHRGKVTLNESEICAGAEKIGSGPCEGDYGGPLVCEQHKMRMVLGVIVPGRGCAIPNRPGIFVRVAYYAKWIHKIILTYKVPQS	soluble
